The experiment relates to MOLM-14 cells (FLT3-ITD positive). As to the kind of experiment: Cell proliferation, trypan blue counting, MOLM-14. The format is cell-based, human. To be noted: 1 nM. On the procedure: Cells were harvested each day and counted after trypan blue staining. The graphs represent three independent experiments.
Cell lines and reagents. […] Concerning MOLM-14 cell line, the presence of a monoallelic 21 bp FLT3-ITD mutation and of an MLL-containing ins(11; 9)(q23;p22p23) were verified (Hematology laboratory of Toulouse University Hospital, Prof E. Delabesse and Dr I. Luquet). KG1 and HL-60 (ACC-14 and ACC-3, DSMZ) cell lines were grown in Iscove's Modified Dulbecco's Medium (IMDM, Gibco) plus 20% FBS. All cells were grown in the presence of 100 units/ml of penicillin and streptomycin (Invitrogen) at 37° C. and 5% CO2.
siRNA. The MV4-11 cell line was transfected with the Amaxa nucleofection technology (Lonza, Koeln, Germany). […] Twenty-four or forty-eight hours after transfection, cells were counted (trypan blue staining), and western blotting was performed.

Structures are written as SMILES.

`CC(C)(C)c1cc(NC(=O)Nc2ccc(-c3cn4c(n3)sc3cc(OCCN5CCOCC5)ccc34)cc2)no1` [AC220, quizartinib, reference compound]: the “cell death in MOLM-14” value is reported as “low levels of cell death”.

For the origin of these results see patent publication US10179914B2, “CDC25A inhibitor for the treatment of drug resistant cancer or for the prevention of tumor relapse” (INSERM (INSTITUT NATIONAL DE LA SANTÉ ET DE LA RECHERCHE …, priority 2014, dated 2019).
